These results are taken from patent US10898567B2, “Synthetic long peptides (SLP) for therapeutic vaccination against Hepatitis B virus infection” (priority 2014, dated 2021).

The experiment deals with PBMC derived from HBV-immune donors. In kind it is cell-based, human. Particulars: six HBV-immune donors; PBMC pre-stimulated with 3 nmol/ml peptide for 72 hours. The method, then: To detect antigen-specific IFNγ-producing human T cells, the PBMC were first pre-stimulated with 3 nmol/ml of the indicated peptide for 72 hours at 37° C. […] After stimulation of the PBMC, the coating antibody was aspirated from the plate, and washed 4 times with PBS. To block aspecific binding, 100 μl of IMDM containing 8% FCS was added to all wells and incubated at 37° C. for 1 hour. In the meantime, stimulated PBMC were harvested, centrifuged, resuspended in X-vivo 15 medium (Lonza) and counted. […] The medium in the wells of the PVDF plate was aspirated and 100 μl of each PBMC sample was added to the plate in quadruplicates. The plates were incubated at 37° C. overnight. The next day, the supernatant was discarded and plates are washed 6 times with PBS/Tween20 0.05%. […] Next, plates were washed 6 times using PBS/Tween20 0.05% and 1 μg/ml Extravidin-Alkaline phosphatase (ALP) (Sigma-Aldrich) was added to all wells (100 μl/well) in PBS with 1% FBS. The plates were incubated for 1 hour at RT. ALP substrate solution BCIP/NBT-plus (Mabtech) was prepared and 100 μl/well was added to all wells after the plates were washed 4 times with PBS/Tween20 0.05%. To terminate the colorimetric reaction (after 1-20 minutes), tap water was used to wash the plates extensively. After drying, the formed spots were measured on a Biosys Bioreader 5000. […]

Regarding “MENITSGFLGPLLVLQAGFFLLTRILTIPQSLDSWW [SLP30]”, the “average SI of the IFNγ-responses” value was 1.49.
